In patent publication US11325982B2, “Biparatopic and multiparatopic antibodies with common light chain and method of use” (XUANZHU BIOPHARMACEUTICAL CO., LTD., priority 2017, dated 2022):

Columns and labels:
NCI-N87 cells = assay: Inhibition of proliferation of NCI-N87 cells (CCK-8); assay type: cell-based; conditions: 72 hours, FIG. 14
Method: The growth curve of NCI-N87 was initially determined by plating cells at various densities in 96-well tissue culture plates. Cells were gown in RPMI-1640 medium supplemented with 10% fetal bovine serum (FBS).
(§1) 24 hours later, 10 μl of antibody construct diluted to various concentrations with the medium were added to the cell culture. After the cells were cultured for additional 72 hours, the cell proliferation rates were determined by adding 10 μl of CCK-8 reagent (Sigma). After 3 hour of incubation without light, the plates were read at OD450 nm. The wells without addition of antibody were set as 100% cell viability and Docetaxel was used as a positive control for cytotoxicity. The data were then fitted into 4-parameter sigmoidal curve to generate IC50. The samples were done in triplicate.

[1] = tested on: BT474 Herceptin-drug resistant cells (BT474-HerDR); assay: Inhibition of proliferation of Herceptin-resistant BT474 cells (CellTiterGlo viability); assay type: cell-based; conditions: 72 hours, FIG. 13
Method: as §1, with “hours,” for “hours, the”, “viability was” for “proliferation rates were”, “CellTiterGlo (Promega).” for “adding 10 μl of CCK-8 reagent (Sigma). After 3 hour of incubation without light, the plates were read at OD450 nm.”

For trastuzumab [T22, reference compound], the growth inhibition (NCI-N87 cells) was “minimal effect” and the “effect on cell viability (cytotoxicity)” value [1] was “had no effect”.
